Values of other authors, collected in publication PMC5845537 (Frontiers in Pharmacology, 2018).

Tested on: SERT
Settings: ref Pehrson et al., 2015; cited from earlier work

**Q.** Which “SERT occupancy ED80” value does the source give for `Fc1ccc([C@@H]2CCNC[C@H]2COc2ccc3c(c2)OCO3)cc1` [paroxetine] here?
**A.** ~0.2 mg/kg
